Data taken from patent US20250051444A1 (SUZHOU ZELGEN BIOPHARMACEUTICALS, published 2025).

B1: L15-06 (antibody, V domains shown)
VH: EVQLLESGGGLVQPGGSLRLSCAASGFTFSSYYMSWVRQAPGKGLEWVADISVSGSYTNYADSVKGRFTISRDNSKNTLYLQMNSLRAEDTAVYYCARIGSYRSFFSTDDGDSLDYWGQGTLVTVSS
VL: not shown
notes: From phage library screening; tested as a 'monoclonal antibody molecule'; also called L15-L06; anti-LRRC15 antibody L15-06
B2: L15-07 (antibody, V domains shown)
VH: QVQLVQSGAEVKKPGSSVKVSCKASGGTFSTYAISWVRQAPGQGLEWMGGITPMFGTPNYAQKFQGRVTITADESTSTAYMELSSLRSEDTAVYYCARGDWYDYHFDYWGQGTLVTVSS
VL: QSALTQPASVSGSPGQSITISCTGTSSDVGGYNYVSWYQQHPGKAPKLMIYEVSNRPSGVSNRFSGSKSGNTASLTISGLQAEDEADYYCQSYANRDNFVVFGGGTKLTVL
notes: From phage library screening; also called anti-LRRC15 antibody L15-07
B3: L15-08 (antibody, V domains shown)
VH: QVQLVESGGGLVKPGGSLRLSCAASGFTFSDYYMSWIRQAPGKGLEWVSDISVSSSYTNYADSVKGRFTISRDNAKNSLYLQMNSLRAEDTAVYYCARLGGYRSFFSTDDGDSLDYWGQGTLVTVSS
VL: not shown
notes: From phage library screening; also called anti-LRRC15 antibody L15-08

Biological target: T1, mouse LRRC15 (mouse, UniProt Q80X72 22-579)
T1 construct: whole, on cells
Assay: FACS on CHO cells expressing mouse LRRC15
Experimental: Furthermore, the binding ability of the LRRC15 antibodies of the present invention to CHO cells expressing LRRC15 was tested. Therein, CHO cells expressing LRRC15 were prepared by the following method: the full-length sequence gene fragments of human, mouse and monkey LRRC15 were obtained by whole gene synthesis, and then these fragments were inserted into the backbone of the stable expression vector to obtain the expression plasmid vectors. These three plasmids were transfected into CHO cells, and monoclonal cell lines were screened under the pressure of puromycin, which are the flow cytometry cell lines used in this example.
CHO cells expressing LRRC15 were washed with FACS buffer (0.5% BSA in PBS) and resuspended at 2E6 cells/ml with the gradient diluted LRRC15 antibodies. The resuspension was incubated on ice for 30 minutes, then washed twice with FACS buffer and incubated with the second antibody on ice for 30 minutes. After washing the resuspended cells with FACS buffer again, the cells were detected by flow cytometry. Based on the measured mean fluorescence intensity, the half maximal binding concentration (EC50) of each antibody was determined.

Binder | binding result
B1 | binds
B2 | binds
B3 | binds
